Key:
[1] = Drug uptake in HT1080 cells xenografted mouse assessed as bone to muscle ratio after 90 mins; format: ADME, cell-based, HT-1080; settings: in vivo, 1.5 h
[2] = Drug uptake in HT1080 cells xenografted mouse assessed as tumor to muscle ratio after 90 mins in presence of non-radioactive ML5; format: ADME, cell-based, HT-1080; settings: in vivo, 1.5 h
[3] = Drug uptake in HT1080 cells xenografted mouse assessed as large intestine to muscle ratio after 90 mins in presence of non-radioactive ML5; format: ADME, cell-based, HT-1080; settings: in vivo, 1.5 h
[4] = test system: Intestine; assay: Drug uptake in HT1080 cells xenografted mouse assessed as large intestine to muscle ratio after 90 mins; format: ADME, cell-based, HT-1080; settings: in vivo, 1.5 h
[5] = Drug uptake in HT1080 cells xenografted mouse assessed as tumor to muscle ratio after 90 mins; format: ADME, cell-based, HT-1080; settings: in vivo, 1.5 h
[6] = Drug uptake in HT1080 cells xenografted mouse assessed as heart to muscle ratio after 90 mins in presence of non-radioactive ML5; format: ADME, cell-based, HT-1080; settings: in vivo, 1.5 h
[7] = Drug uptake in HT1080 cells xenografted mouse assessed as lung to muscle ratio after 90 mins in presence of non-radioactive ML5; format: ADME, cell-based, HT-1080; settings: in vivo, 1.5 h
[8] = Drug uptake in HT1080 cells xenografted mouse assessed as lung to muscle ratio after 90 mins; format: ADME, cell-based, HT-1080; settings: in vivo, 1.5 h
[9] = Drug uptake in HT1080 cells xenografted mouse assessed as heart to muscle ratio after 90 mins; format: ADME, cell-based, HT-1080; settings: in vivo, 1.5 h
[10] = test system: Plasma (Homo sapiens); assay: Metabolic stability in human plasma assessed as radioactivity at 3 hrs
[11] = Drug uptake in HT1080 cells xenografted mouse assessed as bone to muscle ratio after 90 mins in presence of non-radioactive ML5; format: ADME, cell-based, HT-1080; settings: in vivo, 1.5 h

CC(C)C[C@H](CC(=O)NO)C(=O)N[C@@H](Cc1ccccc1)C(=O)N[C@@H](CCCCNC(=O)c1ccc([18F])cc1)C(N)=O
Ratio [1]: 0.769
Ratio [2]: 1.084
Ratio [3]: 81.219
Ratio [4]: 33.065
Ratio [5]: 3.035
Ratio [6]: 1.178
Ratio [7]: 2.897
Ratio [8]: 4.616
Ratio [9]: 2.069
Stability [10]: 99%
Ratio [11]: 0.478

Reference: ChEMBL document CHEMBL3352502, “A dual inhibitor of matrix metalloproteinases and a disintegrin and metalloproteinases, [¹⁸F]FB-ML5, as a molecular probe for non-invasive MMP/ADAM-targeted imaging” (Bioorg Med Chem, 2015)
